Test results from patent US12195427B2.

The chains behind the UniProt entries cited, without tags or fusion partners. Residues count along the entry.
UniProt O00187, 445-686 limits assumed: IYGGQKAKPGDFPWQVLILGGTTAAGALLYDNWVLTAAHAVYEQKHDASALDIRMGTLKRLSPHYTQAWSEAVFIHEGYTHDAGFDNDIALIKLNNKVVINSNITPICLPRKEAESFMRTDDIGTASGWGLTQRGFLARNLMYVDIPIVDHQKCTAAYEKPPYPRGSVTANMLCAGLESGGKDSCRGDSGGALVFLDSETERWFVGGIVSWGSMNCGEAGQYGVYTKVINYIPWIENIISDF

Molecular target: MASP-2 (CCP1-CCP2-SP) (Homo sapiens (Human), UniProt O00187)
Assay: Enzymatic Assay for MASP-2
Format: biochemical

C[C@H](NC(=O)[C@@H](CCc1ccccc1)NCc1cc2ccccc2[nH]1)C(=O)NCc1ccc(C(=N)N)cc1
MASP-2 vs. thrombin selectivity: −− (less than 1.0-fold)

C[C@H](NC(=O)[C@@H](CCc1ccccc1)NCc1ccc(F)cc1)C(=O)NCc1ccc(C(=N)N)cc1
MASP-2 vs. thrombin selectivity: −− (less than 1.0-fold)
